A short description of one data set: in vivo. As to conditions: APP/PS1 knock-in, mouse, po.

By NOAEL is commonly meant the highest dose or exposure tested at which no adverse effect was seen. `CN1CCN(c2cc(-c3ccncc3)c(-c3ccc4ccccc4c3)nn2)CC1` [MW-150] had a no-observed-adverse-effect level (NOAEL) in the data set “in vivo” of at least 250 mg/kg. In general, pKa refers to the pH at which an ionisable group is half protonated. A high value points to a group that holds its proton tightly. The compound `c1ccc(-c2nnc(N3CCN(c4ncccn4)CC3)cc2-c2ccncc2)cc1` displayed a pKa in “physchem” of 4.18 to 4.6. With `Clc1cc(-c2ccncc2)c(-c2ccccc2)nn1`, the pKa in “physchem” came out at 3.83.

The values above are taken from ChEMBL document CHEMBL4602604, “A Selective and Brain Penetrant p38αMAPK Inhibitor Candidate for Neurologic and Neuropsychiatric Disorders That Attenuates Neuroinflammation and Cognitive Dysfunction” (J Med Chem, 2019).
